{"sequences": {"note": "Protein sequences, listed by entry. Tags and fused reporters are not part of them.", "UniProt P32245, whole entry, looked up": "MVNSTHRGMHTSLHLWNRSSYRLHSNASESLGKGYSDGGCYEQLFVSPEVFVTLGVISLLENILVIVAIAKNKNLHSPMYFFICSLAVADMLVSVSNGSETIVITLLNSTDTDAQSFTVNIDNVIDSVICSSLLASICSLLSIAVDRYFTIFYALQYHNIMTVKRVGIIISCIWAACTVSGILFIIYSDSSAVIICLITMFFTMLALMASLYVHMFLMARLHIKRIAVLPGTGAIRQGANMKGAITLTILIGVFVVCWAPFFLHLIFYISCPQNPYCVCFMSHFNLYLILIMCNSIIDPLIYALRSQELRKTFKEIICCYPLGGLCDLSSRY"}, "source": "PubChem BioAssay AID540308", "about": "(The Scripps Research Institute Molecular Screening Center, 2011)", "note": "Where “and” joins values, the source holds several entries; their conditions need not be identical. Identical values can stand only once. This is a selection; strong and weak results do not stand in their true shares. Calls of active or inactive are those of the source.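 The calls were made as follows: active = activation above a per-plate cutoff, the mean activation of sample wells on that plate plus 3 SD (cut at about 8% in these data); inactive = the rest.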"}
{"molecular_target": "Melanocortin receptor 4 (Homo sapiens) (UniProt P32245)", "assay": "activators of MC4R beta-arrestin recruitment – cell-based, luminescence, agonist arm of biased-ligand search, primary screen (AID 540308)", "conditions": "U2OS MC4R beta-arrestin complementation, at 8.9 µM, hits give high values, percent of melanotan II response, DMSO zero"}
{"smiles": "Cc1nn(-c2ccccc2)c2c1P(=O)(N1CCOCC1)N(C)C(c1ccccc1)=N2", "note": "(configuration not stated)", "activation": "inactive: -1.26%"}
{"smiles": "CN(C)C1(CNC(=O)c2ccc(S(C)(=O)=O)cc2)CCCCC1", "activation": "inactive: 0.63%"}
{"smiles": "CCCC1OP(=O)(Nc2ccccc2)OCC1CC", "note": "(configuration not stated)", "activation": "inactive: 2.1%"}
{"smiles": "O=C(/C=C/c1ccccc1)OC1CN2CCC1CC2", "note": "(configuration not stated)", "activation": "inactive: -3.12%"}
{"smiles": "O=P1(Nc2ncccn2)COc2ccccc2OC1", "activation": "inactive: -1.96%"}
{"smiles": "Nc1cccc([As](=O)(O)c2ccccc2)c1", "activation": "inactive: -3.33%"}
{"smiles": "O=[As](O)(c1cccs1)c1cccs1", "activation": "inactive: -0.78%"}
{"smiles": "Cc1ccc(OCC(=O)OC2CN3CCC2CC3)cc1", "note": "(configuration not stated)", "activation": "inactive: -1.89%"}
{"smiles": "O=P1(Nc2ccc(Br)cn2)COc2ccccc2OC1", "activation": "inactive: -1.41%"}
{"smiles": "NS(=O)(=O)c1cccc(NC(=O)COC(=O)C(O)(c2ccccc2)c2ccccc2)c1", "activation": "inactive: -1.11%"}
{"smiles": "CCOP(=O)(NC(=NC(C)c1ccccc1)NC(C)c1ccccc1)OCC", "note": "(configuration not stated)", "activation": "inactive: -2.39%"}
{"smiles": "O=P1(Nc2ccccn2)COc2ccccc2OC1", "activation": "inactive: 0.88%"}
{"smiles": "CCC1=CC2Cc3nc4ccc(Cl)cc4c(N)c3C(C1)C2", "note": "(configuration not stated)", "activation": "inactive: 1.37%"}
{"smiles": "CCOP(=O)(Nc1ccc(C)cn1)OCC", "activation": "inactive: -0.54%"}
{"smiles": "CN(CCCl)Cc1cc(Cl)c(NC2=NCCN2)c(Cl)c1", "activation": "inactive: -0.75%"}
{"smiles": "CC(C)(C)C(=O)NC(Sc1ncccn1)C(Cl)(Cl)Cl", "note": "(configuration not stated)", "activation": "inactive: -0.28%"}
{"smiles": "O=P1(N(CCCl)CCCl)NCCC(C(F)(F)F)O1", "note": "(configuration not stated)", "activation": "inactive: -0.73%"}
{"smiles": "Clc1n[nH]nc1-c1nn[nH][15n]1", "activation": "inactive: -0.66%"}
{"smiles": "COc1ccccc1CNC(=O)COC(=O)C(O)(c1ccccc1)c1ccccc1", "activation": "inactive: -3.08%"}
{"smiles": "CC(C)/C=N\\N=C(\\N)N[N+](=O)[O-]", "activation": "inactive: 0.26%"}
{"smiles": "CN(C(=O)Cc1ccc(Cl)c(Cl)c1)[C@@H]1CCCC[C@H]1N1CCCC1", "activation": "inactive: -0.17%"}
{"smiles": "CC1(CBr)Cn2c(nc3ccccc3c2=O)S1", "note": "(configuration not stated)", "activation": "inactive: -0.97%"}
{"smiles": "O=C(OC1CN2CCC1CC2)c1ccc(Cl)cc1", "note": "(configuration not stated)", "activation": "inactive: -0.36%"}
{"smiles": "CS(=O)(=O)c1ccc(Cl)c(NC(=O)COC(=O)C(O)(c2ccccc2)c2ccccc2)c1", "activation": "inactive: -1.66%"}
{"smiles": "O=[As](O)(O)c1cccnc1", "activation": "inactive: -1.97%"}
{"smiles": "COc1cc(C(=O)NCC2(N3CCOCC3)CCCCC2)cc(Cl)c1OC(C)C", "activation": "inactive: 0.53%"}
{"smiles": "Cc1cccc(OCC(=O)OC2CN3CCC2CC3)c1", "note": "(configuration not stated)", "activation": "inactive: 0.4%"}
{"smiles": "O=[As](O)(c1cccc(O)c1)c1cccc(O)c1", "activation": "inactive: 0.62%"}
{"smiles": "Nc1cccc2c([As](=O)(O)O)cccc12", "activation": "inactive: 1.01%"}
{"smiles": "Cc1ccc(NCCc2c([N+](=O)[O-])cc([N+](=O)[O-])cc2[N+](=O)[O-])cc1", "activation": "inactive: 1.36%"}
{"smiles": "CCCOP(=S)(Nc1nc(N)cc(=O)[nH]1)OCCC", "activation": "inactive: 0.6%"}
{"smiles": "CCOP(=O)(Nc1cccc2ccccc12)OCC", "activation": "inactive: -1.93%"}
{"smiles": "COc1cc(C2NCCC3(OCCO3)C2(C)C)cc(OC)c1OC", "note": "(configuration not stated)", "activation": "inactive: 0.9%"}
{"smiles": "O=P(Nc1nccs1)(Oc1ccccc1)Oc1ccccc1", "activation": "inactive: 1.6%"}
{"smiles": "O=P(Nc1nccs1)(c1ccccc1)c1nc2ccccc2s1", "note": "(configuration not stated)", "activation": "inactive: -0.45%"}
{"smiles": "CCOP1(=S)c2c(C)nn(CCC#N)c2N=C(c2ccccc2F)N1C", "note": "(configuration not stated)", "activation": "inactive: -1.52%"}
{"smiles": "CS(=O)(=O)c1cc([N+](=O)[O-])c2no[n+]([O-])c2c1", "activation": "inactive: -1.07%"}
{"smiles": "Nc1ccccc1[As](=O)(O)c1ccccc1", "activation": "inactive: -0.29%"}
{"smiles": "O=C(O)COc1ccc([As](=O)(O)O)cc1[N+](=O)[O-]", "activation": "inactive: 2.21%"}
{"smiles": "NC(=O)Nc1ccc([As](=O)(O)O)cc1", "activation": "inactive: -1.76%"}
{"smiles": "COc1ccc(CC(C)NCC(O)c2ccc(O)c(NC=O)c2)cc1", "note": "(configuration not stated)", "activation": "inactive: -0.33% and inactive: -1.76%"}
{"smiles": "CCOP1(=S)c2c(C)nn(CCC#N)c2N=C(c2ccc(F)cc2)N1C", "note": "(configuration not stated)", "activation": "inactive: 2.66%"}
{"smiles": "CN(C(=O)Cc1ccccc1)[C@@H]1CC[C@]2(CCCO2)C[C@H]1N1CCCC1", "activation": "inactive: 0.85%"}
{"smiles": "N#CCCN(C(=O)COC(=O)C(O)(c1ccccc1)c1ccccc1)c1ccc(F)cc1", "activation": "inactive: -2.53%"}
{"smiles": "CN(C(=O)Cc1ccc(Cl)c(Cl)c1)[C@H]1CC[C@@]2(CCCO2)C[C@@H]1N1CCCC1", "activation": "inactive: 0.64%"}
{"smiles": "O=[N+]([O-])c1ccc2c(c1)nnn2O", "activation": "inactive: -0.71%"}
{"smiles": "CN(C)C(=O)c1cc([N+](=O)[O-])cc2c1-c1c(cc([N+](=O)[O-])cc1[N+](=O)[O-])C2=O", "activation": "inactive: -2.67%"}
